Measured values as given in PubChem BioAssay AID1478 (National Center for Advancing Translational Sciences (NCATS), 2009).
Where “and” joins values, the source holds several entries; their conditions need not be identical. Identical values can stand only once. Only a part is listed here, and it is no random draw. Calls of active or inactive are those of the source. The call rests on the fitted dose curve; in most records, active means well fitted inhibition curve with a large enough effect; inconclusive means small, poorly fitted or top-dose-only effect; inactive means flat fitted curve, though single readings scatter.
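Further: plate controls were neutral wells for no effect and buffer without enzyme for full effect; nearly all actives have a fitted effect of over 40% in size.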

Amino acid sequences for entries named in this document (tags omitted). Residues count along the entry.
UniProt P25779, 123-467 limits assumed: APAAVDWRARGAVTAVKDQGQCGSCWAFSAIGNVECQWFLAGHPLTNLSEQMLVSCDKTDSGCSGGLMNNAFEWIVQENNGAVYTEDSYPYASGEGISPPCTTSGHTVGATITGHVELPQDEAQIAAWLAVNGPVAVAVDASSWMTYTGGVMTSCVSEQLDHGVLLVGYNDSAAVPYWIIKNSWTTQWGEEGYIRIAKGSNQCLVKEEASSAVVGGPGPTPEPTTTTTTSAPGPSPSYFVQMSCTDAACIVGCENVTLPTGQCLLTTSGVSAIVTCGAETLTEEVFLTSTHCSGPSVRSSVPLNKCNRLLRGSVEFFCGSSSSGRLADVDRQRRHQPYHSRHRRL

Each compound was assayed against Cruzipain (Trypanosoma cruzi) (UniProt P25779) (assay: qHTS Assay for Promiscuous and Specific Inhibitors of Cruzain (with detergent)). Conditions: purified cruzain, Z-FR-AMC fluorescence, 0.01% Triton.
Procedure: Cruzain (3.4.22.51) is a cysteine protease from the tropical parasite Trypanosoma cruzi. Dual qHTS experiment was performed against the NCGC compound collection in order to 1) identify novel inhibitors of the enzyme and 2) profile the compound collection for promiscuous inhibitors operating via colloidal aggregation (by performing detergent-free and detergent-containing comparison screens). Cruzain was assayed by the use of fluorogenic coumarin-based substrate Z-FR-AMC: proteolytic cleavage releases AMC, whose fluorescence is measured at 360 nm excitation and 450 nm emission. Purified cruzain was supplied by the labs of Prof. James McKerrow and Brian Shoichet, UC San Francisco.
This assay had 0.01% Triton X-100 concentration. See also releated assay "qHTS Assay for Promiscuous and Specific Inhibitors of Cruzain (without detergent)" with 0.00005% Triton X-100.
See following references for additional details: […]
Three uL of enzyme or buffer were dispensed to 1536-well Greiner black solid bottom plates. […] The plates were immediately transferred to and read 4 times every 30 seconds for 2 min on ViewLux High-throughput CCD imager (Perkin-Elmer) using 360 nm excitation and 450 nm emission fluorescence protocol. The fluorescence intensity difference between the third and the first time points (time lapse of 60 seconds) was used to compute reaction progress.
In the case of `O=[N+]([O-])C(Cl)(Cl)Cl`, the max response, negative = inhibition is reported as inactive: 8.13%. `CN(CCCl)CCCl` was tested, and the max response, negative = inhibition was inactive: -2.75% and inactive: -2.66%.
